The values that follow come from patent US6368812B1 (priority 1996, dated 2002).

Amino acid sequences for entries named in this document (tags omitted). A change or cut given only in a name is not applied to a line headed by its entry.
UniProt P07480: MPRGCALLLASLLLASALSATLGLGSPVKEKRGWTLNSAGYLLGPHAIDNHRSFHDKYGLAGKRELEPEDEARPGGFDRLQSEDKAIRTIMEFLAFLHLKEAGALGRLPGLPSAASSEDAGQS

The target of assay [1] is T1, rat GALR3 (Rattus norvegicus, UniProt O88626).
T1 sequence (O88626 1-370): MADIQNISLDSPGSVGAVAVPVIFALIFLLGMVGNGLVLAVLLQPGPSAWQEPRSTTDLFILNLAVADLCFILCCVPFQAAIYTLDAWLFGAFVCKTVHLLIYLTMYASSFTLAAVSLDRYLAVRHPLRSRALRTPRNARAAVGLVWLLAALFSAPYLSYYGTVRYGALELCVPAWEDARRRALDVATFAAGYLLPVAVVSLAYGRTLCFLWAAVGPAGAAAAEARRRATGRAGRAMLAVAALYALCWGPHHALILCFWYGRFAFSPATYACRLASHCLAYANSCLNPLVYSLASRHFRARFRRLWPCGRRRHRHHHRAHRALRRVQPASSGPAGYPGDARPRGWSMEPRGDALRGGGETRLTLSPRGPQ
The assay can be described thus: porcine 125I-galanin binding, membranes of stable cell line 293-rGalR3-105.

The target in assay [2] is T1, rat GALR3. Put plainly: porcine 125I-galanin binding, rat GALR3 transiently expressed in COS-7 cell membranes.
For assay [3], the target named is T2, human GALR3 galanin receptor (human, UniProt O60755 1-368).
T2 sequence: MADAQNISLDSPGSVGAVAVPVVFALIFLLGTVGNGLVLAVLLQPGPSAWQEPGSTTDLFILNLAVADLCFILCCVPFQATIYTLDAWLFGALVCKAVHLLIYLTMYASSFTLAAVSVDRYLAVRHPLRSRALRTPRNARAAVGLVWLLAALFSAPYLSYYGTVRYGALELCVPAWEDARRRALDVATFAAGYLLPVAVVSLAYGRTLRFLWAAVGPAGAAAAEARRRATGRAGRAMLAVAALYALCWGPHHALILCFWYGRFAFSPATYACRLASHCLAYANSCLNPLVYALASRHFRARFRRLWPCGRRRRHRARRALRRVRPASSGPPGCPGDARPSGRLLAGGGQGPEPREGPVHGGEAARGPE
Put plainly: cell-based or functional assay.

For orientation: Ki means a measure of affinity in units of concentration, obtained from inhibition or displacement. Read a low Ki as higher affinity.

For `CSCC[C@H](NC(=O)[C@H](CC(C)C)NC(=O)CNC(=O)[C@H](Cc1ccccc1)NC(=O)[C@H](Cc1ccccc1)NC(=O)[C@H](CCC(N)=O)NC(=O)[C@H](CCC(N)=O)NC(=O)[C@@H]1CCCN1C(=O)CNC(=O)[C@H](CC(C)C)NC(=O)[C@H](CC(C)C)NC(=O)[C@H](Cc1ccc(O)cc1)NC(=O)CNC(=O)[C@H](C)NC(=O)[C@H](CO)NC(=O)[C@H](CC(N)=O)NC(=O)[C@H](CC(C)C)NC(=O)[C@@H](NC(=O)[C@H](Cc1c[nH]c2ccccc12)NC(=O)CN)[C@@H](C)O)C(N)=O`, the Ki at rat GALR3 [1] (Ki (nM) Rat 293-rGalR3-105, Table 5, stable) came to 7.6 nM; at rat GALR3 [1] (Ki (nM) Rat GALR3 293 #105, Table 9), 11.5 nM; at rat GALR3 [2] it was 9 nM. Also, on rat GALR3 [2] (peptide displacement assays), the “binding affinity for rat GALR3 in words” value is on record as “slightly less active”.
For GWTLNSAGYLLGPHAIDNHRSFHDKYGLA (peptide, UniProt P07480 33-61, looked up) [porcine galanin], the “Oocyte EC50 (stimulation of GIRKs)” value in assay [3] came out at 222 nM.
